Results as given in paper PMC7782793, “Hydroxamic acid-modified peptide microarrays for profiling isozyme-selective interactions and inhibition of histone deacetylases” (Nature Communications, 2021).
Where “and” joins values, the source holds several entries; their conditions need not be identical. Equal entries are not always repeated. Where two headings read alike, the source gives them in different places.

Chains of the proteins cited; added tags and fusions are not shown. Residues count along the entry.
UniProt P56524, 627-1084: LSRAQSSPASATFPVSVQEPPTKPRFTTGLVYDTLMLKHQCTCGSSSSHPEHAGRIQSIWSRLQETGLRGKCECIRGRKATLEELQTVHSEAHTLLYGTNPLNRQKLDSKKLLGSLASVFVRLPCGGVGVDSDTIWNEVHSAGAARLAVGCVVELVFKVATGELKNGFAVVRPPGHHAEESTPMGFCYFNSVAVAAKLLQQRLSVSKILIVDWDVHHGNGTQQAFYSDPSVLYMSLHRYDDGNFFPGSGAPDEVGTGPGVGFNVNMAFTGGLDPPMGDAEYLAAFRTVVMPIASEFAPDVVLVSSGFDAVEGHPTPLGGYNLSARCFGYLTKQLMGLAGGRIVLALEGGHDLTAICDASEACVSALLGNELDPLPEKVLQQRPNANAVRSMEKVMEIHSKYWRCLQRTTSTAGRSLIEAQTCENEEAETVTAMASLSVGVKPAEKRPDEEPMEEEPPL

Target: HDAC4 (Homo sapiens, UniProt P56524)
Details: 2 internal replicates

CC(/C=C/C(=O)NO)=C\[C@@H](C)C(=O)c1ccc(N(C)C)cc1 [TSA, trichostatin A, reference compound]
residual enzymatic activity relative to control wells (inhibitor 5 µM): 15.14 and 20.9 | residual enzymatic activity relative to control wells (inhibitor 50 µM): 3.06 and 5.38
